Data on 14 compounds can be found in ChEMBL document CHEMBL1127482 (J Med Chem, 1994).

Amino acid sequences for entries named in this document (tags omitted). Residues count along the entry.
UniProt P05106, 27-788 limits assumed: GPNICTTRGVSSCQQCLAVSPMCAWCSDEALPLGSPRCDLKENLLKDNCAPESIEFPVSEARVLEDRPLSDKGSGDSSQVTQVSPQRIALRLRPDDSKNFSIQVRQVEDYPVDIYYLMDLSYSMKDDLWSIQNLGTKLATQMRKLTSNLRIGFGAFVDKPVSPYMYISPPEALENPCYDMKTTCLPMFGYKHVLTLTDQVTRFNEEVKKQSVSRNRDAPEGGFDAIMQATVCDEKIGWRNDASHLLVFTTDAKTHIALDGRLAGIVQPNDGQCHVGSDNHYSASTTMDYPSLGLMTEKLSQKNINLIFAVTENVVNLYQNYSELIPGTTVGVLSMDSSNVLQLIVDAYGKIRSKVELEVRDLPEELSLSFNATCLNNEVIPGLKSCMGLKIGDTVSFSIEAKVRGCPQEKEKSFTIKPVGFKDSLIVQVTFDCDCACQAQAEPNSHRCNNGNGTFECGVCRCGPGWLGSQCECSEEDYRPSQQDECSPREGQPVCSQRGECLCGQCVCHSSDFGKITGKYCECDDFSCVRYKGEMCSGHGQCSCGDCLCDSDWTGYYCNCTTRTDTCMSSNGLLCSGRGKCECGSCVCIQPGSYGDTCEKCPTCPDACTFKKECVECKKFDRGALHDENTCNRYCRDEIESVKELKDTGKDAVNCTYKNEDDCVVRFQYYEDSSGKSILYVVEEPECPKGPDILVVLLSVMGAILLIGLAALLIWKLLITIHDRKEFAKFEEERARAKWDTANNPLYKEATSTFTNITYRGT
UniProt P08514, 32-887 limits assumed: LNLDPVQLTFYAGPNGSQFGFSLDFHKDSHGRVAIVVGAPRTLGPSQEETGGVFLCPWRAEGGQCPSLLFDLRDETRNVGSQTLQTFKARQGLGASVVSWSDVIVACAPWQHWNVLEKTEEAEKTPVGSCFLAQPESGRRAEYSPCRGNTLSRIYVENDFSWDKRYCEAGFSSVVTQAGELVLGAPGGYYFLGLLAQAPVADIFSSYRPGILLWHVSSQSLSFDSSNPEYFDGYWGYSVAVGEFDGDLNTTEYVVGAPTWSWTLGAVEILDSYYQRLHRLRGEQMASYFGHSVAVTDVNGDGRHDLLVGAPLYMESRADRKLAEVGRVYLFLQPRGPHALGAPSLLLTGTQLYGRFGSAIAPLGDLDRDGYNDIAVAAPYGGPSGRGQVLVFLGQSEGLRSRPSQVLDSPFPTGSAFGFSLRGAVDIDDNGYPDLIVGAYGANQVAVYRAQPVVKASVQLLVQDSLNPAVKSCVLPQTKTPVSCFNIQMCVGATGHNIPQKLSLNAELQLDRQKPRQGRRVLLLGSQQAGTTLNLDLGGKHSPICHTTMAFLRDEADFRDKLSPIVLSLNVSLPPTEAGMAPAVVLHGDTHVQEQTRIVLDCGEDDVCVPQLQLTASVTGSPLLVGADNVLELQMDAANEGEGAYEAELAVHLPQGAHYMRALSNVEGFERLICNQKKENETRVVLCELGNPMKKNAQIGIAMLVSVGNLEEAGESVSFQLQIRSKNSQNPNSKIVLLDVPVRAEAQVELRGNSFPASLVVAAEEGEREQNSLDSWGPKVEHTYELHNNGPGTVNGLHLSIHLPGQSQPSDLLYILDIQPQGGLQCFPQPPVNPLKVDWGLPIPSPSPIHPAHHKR
UniProt P08514, 891-1039 limits assumed: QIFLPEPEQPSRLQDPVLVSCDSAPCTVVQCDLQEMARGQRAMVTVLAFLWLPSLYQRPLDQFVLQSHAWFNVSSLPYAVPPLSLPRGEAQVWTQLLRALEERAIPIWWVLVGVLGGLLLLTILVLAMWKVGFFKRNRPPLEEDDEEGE
UniProt P08648, 895-1049 limits assumed: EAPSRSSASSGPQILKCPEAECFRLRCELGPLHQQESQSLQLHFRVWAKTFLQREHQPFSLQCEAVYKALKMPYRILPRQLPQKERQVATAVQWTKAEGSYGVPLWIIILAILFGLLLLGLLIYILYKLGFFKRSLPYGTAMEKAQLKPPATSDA
UniProt P08648, 42-894 limits assumed: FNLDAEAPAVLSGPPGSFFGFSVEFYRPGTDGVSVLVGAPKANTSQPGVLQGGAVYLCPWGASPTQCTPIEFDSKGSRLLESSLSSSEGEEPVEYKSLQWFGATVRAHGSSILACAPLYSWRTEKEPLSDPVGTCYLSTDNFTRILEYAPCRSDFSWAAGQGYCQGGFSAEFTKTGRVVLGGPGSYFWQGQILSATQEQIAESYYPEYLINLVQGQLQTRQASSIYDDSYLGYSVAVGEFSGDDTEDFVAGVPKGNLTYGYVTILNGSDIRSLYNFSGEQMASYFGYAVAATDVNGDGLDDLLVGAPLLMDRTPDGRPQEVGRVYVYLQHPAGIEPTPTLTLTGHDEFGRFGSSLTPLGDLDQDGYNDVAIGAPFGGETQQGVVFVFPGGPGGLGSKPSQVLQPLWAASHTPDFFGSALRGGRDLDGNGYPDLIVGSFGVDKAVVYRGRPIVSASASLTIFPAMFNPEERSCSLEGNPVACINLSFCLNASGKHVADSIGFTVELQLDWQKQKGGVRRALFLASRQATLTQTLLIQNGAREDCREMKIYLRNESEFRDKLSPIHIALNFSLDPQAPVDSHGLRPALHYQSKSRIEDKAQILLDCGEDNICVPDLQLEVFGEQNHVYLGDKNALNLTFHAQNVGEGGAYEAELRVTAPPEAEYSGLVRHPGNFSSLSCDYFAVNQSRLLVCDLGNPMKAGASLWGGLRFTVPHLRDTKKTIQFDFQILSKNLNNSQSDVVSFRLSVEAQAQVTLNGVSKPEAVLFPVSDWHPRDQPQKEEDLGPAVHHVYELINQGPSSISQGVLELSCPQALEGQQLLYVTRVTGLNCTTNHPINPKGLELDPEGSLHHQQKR

Assay [1] concerns the target Integrin alpha-IIb/beta-3 (Homo sapiens, UniProt P05106+P08514). As to the kind of experiment: Binding affinity against integrin alpha 2b-beta 3 in enzyme linked immunosorbent assay (ELISA). Type of assay: protein-complex assay. The method, boiled down: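 Purified human platelet αIIbβ3 (from outdated platelets, octyl glucoside extract) in TBS with 20 mM octyl glucoside, 2 mM MgCl2 and 2 mM CaCl2 binds to plate-coated human fibrinogen (10 µg/mL in TBS) with 10-fold serial peptide dilutions for 3 h at room temperature. Bound receptor is detected with rabbit anti-αIIbβ3, then HRP anti-rabbit IgG, with o-phenylenediamine/H2O2 at pH 5.0. IC50 is reported.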
(An ELISA detects its analyte on a solid surface through an enzyme-linked reagent.)

The target of a further assay is Integrin alpha-5/beta-1 (Homo sapiens, UniProt P05556+P08648). The experiment in a line: Binding affinity against integrin alpha5-beta1 in enzyme linked immunosorbent assay (ELISA). The assay is classed as protein-complex assay.

pIC50: −log10 of the molar value.

With `COc1ccc(C[C@@H]2NC(=O)[C@H](CC(=O)O)NC(=O)CNC(=O)[C@H](CCCNC(=N)N)NC(=O)[C@@H]3CCCN3C(=O)[C@H](CC(N)=O)NC(=O)[C@@H](NC(C)=O)CSSC[C@@H](C(N)=O)NC(=O)[C@H](CCCNC(N)=O)NC2=O)cc1`, the values for the negative logarithm of the IC50 (pIC50) (in assay [1]; at Integrin alpha-5/beta-1) were 6.45 and 6.36, respectively. Compound `COc1ccc(C[C@@H]2NC(=O)[C@H](CC(=O)O)NC(=O)CNC(=O)[C@H](CCCN=C(N)N)NC(=O)[C@@H]3CCCN3C(=O)[C@H](CC(N)=O)NC(=O)[C@@H](NC(C)=O)CSSC[C@@H](C(N)=O)NC(=O)[C@H](CCCN)NC2=O)cc1` gave a pIC50 on Integrin alpha-5/beta-1 of 6.36. At Integrin alpha-5/beta-1, `COc1ccc(C[C@@H]2NC(=O)[C@H](CC(=O)O)NC(=O)CNC(=O)[C@H](CCCN=C(N)N)NC(=O)[C@@H]3CCCN3C(=O)[C@H](CC(N)=O)NC(=O)CCSSC[C@@H](C(N)=O)NC(=O)[C@H](CCCN=C(N)N)NC2=O)cc1` had a pIC50 of 5.22. Compared with the last compound, the pIC50 is 1.14 log units lower. Regarding `COc1ccc(C[C@@H]2NC(=O)[C@H](CC(=O)O)NC(=O)CNC(=O)[C@H](CCCN=C(N)N)NC(=O)[C@@H]3CCCN3C(=O)[C@H](CC(N)=O)NC(=O)CC3(CCCCC3)SSC[C@@H](C(N)=O)NC(=O)[C@H](CCCN=C(N)N)NC2=O)cc1`, the negative-log IC50 (pIC50) was 7.51 in assay [1] and 5.29 at Integrin alpha-5/beta-1.

With `COc1ccc(C[C@@H]2NC(=O)[C@H](CC(=O)O)NC(=O)CNC(=O)[C@H](CCCNC(=N)N)NC(=O)[C@@H]3CCCN3C(=O)[C@H](CC(N)=O)NC(=O)[C@@H](NC(C)=O)CSSC[C@@H](C(N)=O)NC(=O)[C@H](C)NC2=O)cc1`, the values for the pIC50 (in assay [1]; at Integrin alpha-5/beta-1) were 7.30 and 6.08, respectively. The corresponding values for `COc1ccc(C[C@@H]2NC(=O)[C@H](CC(=O)O)NC(=O)CNC(=O)[C@H](CCCNC(=N)N)NC(=O)[C@@H]3CCCN3C(=O)[C@H](CC(N)=O)NC(=O)[C@@H](NC(C)=O)CSSC[C@@H](C(N)=O)NC(=O)[C@H](CCC(=O)O)NC2=O)cc1` are 7.70 and 5.20.

As for `COc1ccc(C[C@@H]2NC(=O)[C@H](CC(=O)O)NC(=O)CNC(=O)[C@H](CCCN=C(N)N)NC(=O)[C@@H]3CCCN3C(=O)[C@H](CC(N)=O)NC(=O)[C@@H](NC(C)=O)CSSC[C@@H](C(N)=O)NC(=O)[C@H](CCCN=C(N)N)NC2=O)cc1`, the pIC50 at Integrin alpha-5/beta-1 is 5.09. In assay [1], `CCCCOc1ccc(C[C@@H]2NC(=O)[C@H](CC(=O)O)NC(=O)CNC(=O)[C@H](CCCNC(=N)N)NC(=O)[C@@H]3CCCN3C(=O)[C@H](CC(N)=O)NC(=O)[C@@H](NC(C)=O)CSSC[C@@H](C(N)=O)NC(=O)[C@H](CCCNC(=N)N)NC2=O)cc1` gave a pIC50 of 8.22. As to `COc1ccc(C[C@@H]2NC(=O)[C@H](CC(=O)O)NC(=O)CNC(=O)[C@H](CCCNC(=N)N)NC(=O)[C@@H]3CCCN3C(=O)[C@H](CC(N)=O)NC(=O)[C@H](NC(C)=O)C(C)(C)SSC[C@@H](C(N)=O)NC(=O)[C@H](CCCNC(=N)N)NC2=O)cc1`, the pIC50 in assay [1] is 9.00; at Integrin alpha-5/beta-1, 5.17.

In assay [1], `COc1ccc(C[C@@H]2NC(=O)[C@H](CC(=O)O)NC(=O)CNC(=O)[C@H](CCCNC(=N)N)NC(=O)[C@@H]3CCCN3C(=O)[C@H](CC(N)=O)NC(=O)[C@@H](NC(C)=O)CSSC[C@@H](C(N)=O)NC(=O)[C@H](CC(C)C)NC2=O)cc1` showed a pIC50 of 6.61. Take `CC(C)C[C@@H]1NC(=O)[C@H](CC(=O)O)NC(=O)CNC(=O)[C@H](CCCNC(=N)N)NC(=O)[C@H](Cc2c[nH]cn2)NC(=O)CNC(=O)CC2(CCCCC2)SSC[C@@H](C(=O)N[C@@H](C)C(=O)O)NC(=O)[C@H](CCCNC(=N)N)NC1=O`: the pIC50 at Integrin alpha-5/beta-1 is 6.08. With `COc1ccc(C[C@@H]2NC(=O)[C@H](CC(=O)O)NC(=O)CNC(=O)[C@H](CCCNC(=N)N)NC(=O)[C@@H]3CCCN3C(=O)[C@H](CC(N)=O)NC(=O)[C@@H](NC(C)=O)CSSC[C@@H](C(N)=O)NC(=O)[C@H](CCCCN)NC2=O)cc1`, the results for the pIC50 (in assay [1]; on Integrin alpha-5/beta-1) were 7.42 and 5.81, respectively. `CC(C)C[C@@H]1NC(=O)[C@H](CC(=O)O)NC(=O)CNC(=O)[C@H](CCCNC(=N)N)NC(=O)[C@H](Cc2c[nH]cn2)NC(=O)CNC(=O)[C@H](NC(=O)[C@@H](N)CCCNC(=N)N)C(C)(C)SSC[C@@H](C(=O)N[C@@H](CCCNC(=N)N)C(=O)O)NC(=O)[C@H](CCCNC(=N)N)NC1=O`: on Integrin alpha-5/beta-1, the pIC50 was 7.00.

`CC[C@H](C)[C@@H]1NC(=O)[C@@H](NC(C)=O)CSSC[C@@H](C(N)=O)NC(=O)[C@H](CCCNC(=N)N)NC(=O)[C@H](Cc2ccc(OC)cc2)NC(=O)[C@H](CC(=O)O)NC(=O)CNC(=O)[C@H](CCCNC(=N)N)NC(=O)[C@@H]2CCCN2C1=O` gave a pIC50 in assay [1] of 8.52.

Broadly, the pIC50 is the negative decadic logarithm of the IC50, by convention in mol/L. The low end stands for a high IC50, the high end for a low IC50.
